Test results as given in patent publication US20050196403A1.

Molecular target: HLA-A*2401 (human)
Assay: competition with 125I probe peptide, purified HLA class I

Question: How did the IC50 turn out when TYQGSYGF (p53 position 102) (peptide) was run?
Answer: 109 nM
